Measured values reported in US6936628B2, “Oral administration of epothilones” (Bristol-Myers Squibb Company, priority 2002, dated 2005).

Test system: Caco-2 monolayers
Details: Caco-2, reference compounds

SMILES: CCCC(=O)Nc1ccc(OCC(O)CNC(C)C)c(C(C)=O)c1 (stereo not shown) [acebutalol]
- Pc: 4.8 ×10⁻⁶ cm/s
